Data as given in PMC7919060 (ACS chemical neuroscience, 2020).

Experiments:
P-glycoprotein (MDR1) = assay: Permeability and efflux in MDR1-MDCK cell monolayer; assay type: in vitro ADME; settings: dog
GlcCer synthase [1] = biological target: T1, GlcCer synthase (Canis lupus familiaris, UniProt A0A8I3MXG6); assay: Broken cell; assay type: biochemical, canine
T1 sequence (A0A8I3MXG6 1-394): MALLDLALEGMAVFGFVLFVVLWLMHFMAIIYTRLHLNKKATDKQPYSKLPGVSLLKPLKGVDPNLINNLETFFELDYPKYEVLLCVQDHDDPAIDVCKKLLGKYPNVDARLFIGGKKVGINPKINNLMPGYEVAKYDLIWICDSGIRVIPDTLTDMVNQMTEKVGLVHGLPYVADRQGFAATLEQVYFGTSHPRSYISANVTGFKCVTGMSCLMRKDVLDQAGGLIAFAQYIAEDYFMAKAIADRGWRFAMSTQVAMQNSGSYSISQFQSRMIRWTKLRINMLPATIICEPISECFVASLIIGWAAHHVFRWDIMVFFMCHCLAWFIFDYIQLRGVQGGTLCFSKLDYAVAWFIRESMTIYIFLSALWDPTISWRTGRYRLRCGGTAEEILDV

GlcCer synthase [2] = biological target: T1, GlcCer synthase; assay: MDCK cell assay for reduction in glucosylceramide; assay type: cell-based, canine

SMILES	efflux ratio (P-glycoprotein (MDR1))	IC50 (GlcCer synthase [1]) [nM]	IC50 (GlcCer synthase [2]) [nM]
CC(C)(NC(=O)O[C@@H]1CN2CCC1CC2)c1csc(-c2ccc(F)cc2)n1 [Compound 3, reference compound]	84	240	37
COc1ccc([C@@H](O)[C@@H](CN2CCCC2)NC(=O)CC2Cc3ccccc3C2)cc1F [Compound 15, 2-(2,3-Dihydro-1H-inden-2-yl)-N-((1R,2R)-1-(3-fluoro-4-methoxyphenyl)-1-hydroxy-3-(pyrrolidin-1-yl)propan-2-yl)acetamide]			2.7
